Experimental data published in patent US8881823B2, “Environmentally friendly low temperature breaker systems and related methods” (Halliburton Energy Services, Inc., priority 2011, dated 2014).

What was measured:
[1] = Miscibility and pH of breaker systems in fresh water; assay type: physicochemical; conditions: breaker system in fresh water, 150° F. for 16 hours
[2] = Calcite dissolving capacity of breaker systems; assay type: physicochemical; conditions: 2.5 g BARACARB 5 in 50 mL test fluid, one hour

- pH [1]: >12
- % Carbonate Complexed or Dissolved [2]: 35.2%
- Final Weight of BARACARB 5, g [2]: 1.62 g
Substance: EDTA sodium salt
